Yeast mating assay 1: variants of the scFv Ab-14

Antigen: PDVDLGDISGINAS, a 14-residue peptide of the SARS-CoV-2 spike HR2 region.

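The starting antibody came from a phage panning campaign against this peptide. Variants in AAYL50 differ from the parent at up to three CDR positions; double and triple changes were sampled at random. The assay is AlphaSeq: two haploid yeast populations carry antibody and antigen on their surface. Mating (16 h, 30 °C) was followed by selection of diploids and sequencing of their barcodes. A regression on co-assayed BCL2-family reference pairs converts the normalised counts of each replicate to an apparent Kd. Each pool was mated in three replicate cultures.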

Each scFv is VH, a (GGGGS)3 linker, VL, as in the parent Ab-14, and differs from it in the CDRs of the light chain only.
VH: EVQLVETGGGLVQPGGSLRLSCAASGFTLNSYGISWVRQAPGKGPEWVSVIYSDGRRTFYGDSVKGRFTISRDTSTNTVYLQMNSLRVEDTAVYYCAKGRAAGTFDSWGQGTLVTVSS
VL: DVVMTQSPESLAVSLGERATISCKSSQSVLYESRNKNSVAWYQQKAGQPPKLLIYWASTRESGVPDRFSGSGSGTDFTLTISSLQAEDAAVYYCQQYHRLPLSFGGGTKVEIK

Each variant is given by its three light chain CDRs, as the data file delimits them; those of the parent are KSSQSVLYESRNKNSVA, WASTRES, QQYHRLPLS. The read-out is the apparent dissociation constant on a log10 scale (nM): the lower, the stronger. Averages over replicates are reported, and they cover detected replicates only. Where no diploid with the target was found in any replicate, the entry reads "not detected": below detection, most likely a poor binder, though not proof of it. Order: sorted from the lowest average up, undetected variants last. Nonspecific signal, from three strains lacking the peptide, appeared in 18% of pairings of library AAYL50, centred on 4.19 (5% of these signals below 2.99); values are not corrected for it.

mean, log10 nM	detected	CDR-L1	CDR-L2	CDR-L3
-0.17	3/3	KHEQSVLYESRNKNSVA	GASTRES	QQYHRLPLS
0.14	3/3	KYSQSVLSESRNKNSVA	WASTRES	QQYHRLPLS
0.45	3/3	KSSQSVLYESDPMNSVA	WASTRES	QQYHRLPLS
0.58	3/3	KSSQSVLYESRNKNSVA	EATTNES	QQYHRLPLS
0.78	3/3	KSSQSVLYESRNKNSVA	QASGRES	QQYLRLPLS
0.89	3/3	KSSQSVLYESRLKNSVA	WASTRES	QQYHRLWLS
1.07	3/3	KSSQSVLYKSENKNSVA	WASTRES	QKYHRLPLS
1.41	3/3	KSSQPVLYESRNGNSVA	WASTRES	QQYHRLPLS
1.48	3/3	KSSQDVPYESRNKMSVA	WASTRES	QQYHRLPLS
1.68	3/3	KSSNSYLYESRNKNSVA	WASTRSS	QQYHRLPLS
1.81	3/3	KSSQSVLYESRNKNSVA	WASTRES	QQWHALPAS
1.82	3/3	KSSQRVLQESRNKCSVA	WASTRES	QQYHRLPLS
1.91	3/3	FSSQSVLYESRNKDSVA	WASTRES	AQYHRLPLS
1.95	3/3	KSSQSVLYESRKWNSVA	WASTRES	QQYHRLPDS
2.07	3/3	KSSQSLLYESRNKNSVA	WASTRRS	QQYERLPLS
2.14	3/3	KSTQSVLYESRSKNSVA	WASTRES	GQYHRLPLS
2.15	2/3	KSSQSVLYESRNKCSIA	WASFRES	QQYHRLPLS
2.22	3/3	KSSQSVLYESRITNSVA	RASTRES	QQYHRLPLS
2.28	3/3	KSSQSVLYESRNKGSVA	WASRRES	QQYHMLPLS
2.30	3/3	KSSASVTYESRNKNSVA	WARTRES	QQYHRLPLS
2.39	3/3	KSSQSVLYCSRNKNSVA	WDSIRES	QQYHRLPLS
2.40	3/3	CSSQSVLYESRNKNSVA	WASTREK	QQYHRLPLS
2.50	3/3	KSSQSVLCESRNKNSVA	WASNRES	QQYNRLPLS
2.61	3/3	KSSQSVLYESRNKKSVA	WASTREH	QQYHYLPLS
2.88	3/3	KSSQSVLYESRNKNSVA	WESTRES	QQYWRAPLS
2.96	1/3	KSSQEVLYESRNKNSVA	WASTRES	QQYHRSPES
3.06	3/3	KSSQWVLYESRNVNSVA	WASTRES	QQYHREPLS
3.38	2/3	KSSQSVLKESRNKNSVA	WASTRNW	QQYHRLPLS
3.47	1/3	KSSDSVLYESREKNSVI	WASTRES	QQYHRLPLS
3.67	1/3	KSSQSVLYESRGKNSVA	WASTFES	QQFHRLPLS
3.68	2/3	KYSQIVLYESRNKNSDA	WASTRES	QQYHRLPLS
3.74	2/3	KSSQSVLYESRNKNSVA	WFSTRER	QQRHRLPLS
3.87	1/3	KSSQSVLYESRNKNSPA	WASARES	QQYHRLPLS
4.08	2/3	KSSQCVLYESRCKNSVA	WASTRES	QQYHRPPLS
4.24	3/3	KEIQSVLYESRNKNSVA	WASTIES	QQYHRLPLS
4.50	3/3	KSSQSVLYESRNKFSRA	WAYTRES	QQYHRLPLS
4.77	2/3	KISQSVLYESRNKNSVL	WASTRKS	QQYHRLPLS
5.20	1/3	KSSQSVGYESRNKNSTA	WASTRES	LQYHRLPLS
5.54	1/3	KSSQSVLHESRNKPSVA	WASTIES	QQYHRLPLS
not detected	0/3	KSSQSYLYESRNKNSVA	WADTRES	QQYHRTPLS
not detected	0/3	KSSQSVLYYSRLKNSVA	WASTWES	QQYHRLPLS
not detected	0/3	PSSQSVLYESRNKNSVV	WASTRES	QQYHILPLS
not detected	0/3	KSSQSVLYESRNRNSVA	WASTRES	QQYHRYPIS
not detected	0/3	KSSQSVLYEIRNKNSEA	YASTRES	QQYHRLPLS
not detected	0/3	KSSQSVLYESRAKNSVA	WASTDES	QQYHRLPLS
not detected	0/3	KSSQSVLYESRCKYSVA	WRSTRES	QQYHRLPLS
not detected	0/3	KFSQSVLYESRNKNSVT	WASTRES	QQYHRLPLS
not detected	0/3	KSSQVVLYESRNKNSVA	WASRRES	QQYHWLPLS
not detected	0/3	KSQQSVLYESRNKNSVA	WAQTMES	QQYHRLPLS
not detected	0/3	KSSQSVWYESRNKNSVP	WASRRES	QQYHRLPLS

The 3 strongest on average among those seen in every replicate, once more:

CDR-L1	CDR-L2	CDR-L3	mean, log10 nM	detected
KHEQSVLYESRNKNSVA	GASTRES	QQYHRLPLS	-0.17	3/3
KYSQSVLSESRNKNSVA	WASTRES	QQYHRLPLS	0.14	3/3
KSSQSVLYESDPMNSVA	WASTRES	QQYHRLPLS	0.45	3/3

From the AlphaSeq antibody data of Engelhart et al. 2022 (doi:10.1038/s41597-022-01779-4), copy in the FLAb collection.